Biological target: 5-hydroxytryptamine receptor 6 (Homo sapiens, UniProt P50406)
Assay: Binding affinity to Homo sapiens (human) 5-HT6 receptor

By UniProt entry, the sequences of proteins in these tests, tags left out.
UniProt P50406, whole entry: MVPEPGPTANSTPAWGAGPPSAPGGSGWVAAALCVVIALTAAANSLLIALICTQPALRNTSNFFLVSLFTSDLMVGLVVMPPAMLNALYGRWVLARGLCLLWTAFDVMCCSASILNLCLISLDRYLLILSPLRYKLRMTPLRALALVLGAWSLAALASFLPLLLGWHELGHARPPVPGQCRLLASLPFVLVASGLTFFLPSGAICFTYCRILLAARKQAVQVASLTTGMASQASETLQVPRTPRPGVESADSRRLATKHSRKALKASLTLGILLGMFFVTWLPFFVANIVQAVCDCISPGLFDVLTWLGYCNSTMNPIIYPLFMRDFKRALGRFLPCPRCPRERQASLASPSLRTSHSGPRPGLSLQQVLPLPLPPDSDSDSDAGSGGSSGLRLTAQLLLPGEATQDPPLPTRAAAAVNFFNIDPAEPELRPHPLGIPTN

COc1ccc2[nH]cc(CCN(C)C)c2c1 [MEBUFOTENIN]
Ki: 70 nM

From ChEMBL document CHEMBL3045250 (Med Chem Res, 2005)
